1 compound from PMC5782818 (Bioorganic & medicinal chemistry letters, 2017) can be followed below.

By UniProt entry, the sequences of proteins in these tests, tags left out. Where a name states a change or a piece, a line headed by the entry shows the natural chain unless it says otherwise.
UniProt Q12809: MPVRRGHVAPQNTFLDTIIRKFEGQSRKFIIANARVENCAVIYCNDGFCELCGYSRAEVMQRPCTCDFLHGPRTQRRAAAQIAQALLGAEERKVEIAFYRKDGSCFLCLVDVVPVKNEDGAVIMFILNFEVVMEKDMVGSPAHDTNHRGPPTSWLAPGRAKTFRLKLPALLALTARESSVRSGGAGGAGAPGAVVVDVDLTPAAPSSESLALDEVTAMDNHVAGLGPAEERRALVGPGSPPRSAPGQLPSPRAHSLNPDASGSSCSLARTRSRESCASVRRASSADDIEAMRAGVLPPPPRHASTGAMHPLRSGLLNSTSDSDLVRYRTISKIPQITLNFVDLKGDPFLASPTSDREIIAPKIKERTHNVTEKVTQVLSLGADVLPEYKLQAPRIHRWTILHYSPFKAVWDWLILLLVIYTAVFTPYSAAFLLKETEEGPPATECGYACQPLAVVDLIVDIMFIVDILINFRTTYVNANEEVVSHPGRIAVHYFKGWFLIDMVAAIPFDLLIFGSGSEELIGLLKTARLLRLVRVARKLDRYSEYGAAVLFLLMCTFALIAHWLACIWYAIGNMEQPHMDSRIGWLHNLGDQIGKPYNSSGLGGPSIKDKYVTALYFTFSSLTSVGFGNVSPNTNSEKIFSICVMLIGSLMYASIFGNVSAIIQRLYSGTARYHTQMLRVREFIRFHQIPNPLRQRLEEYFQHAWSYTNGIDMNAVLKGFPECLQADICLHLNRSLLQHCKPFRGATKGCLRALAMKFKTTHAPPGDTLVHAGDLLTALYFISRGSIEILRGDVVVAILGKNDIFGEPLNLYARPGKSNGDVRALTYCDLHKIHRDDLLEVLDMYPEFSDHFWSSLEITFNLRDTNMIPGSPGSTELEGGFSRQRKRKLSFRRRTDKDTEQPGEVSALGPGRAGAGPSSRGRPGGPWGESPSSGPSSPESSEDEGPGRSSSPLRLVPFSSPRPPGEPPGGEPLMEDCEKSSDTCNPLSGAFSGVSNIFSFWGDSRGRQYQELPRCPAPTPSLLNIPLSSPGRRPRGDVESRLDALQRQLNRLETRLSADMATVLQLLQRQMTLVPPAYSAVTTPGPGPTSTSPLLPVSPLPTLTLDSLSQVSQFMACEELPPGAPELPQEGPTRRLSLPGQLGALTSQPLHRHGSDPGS

For the data set, the target named is hERG channel (Homo sapiens, UniProt Q12809). Put plainly: in vitro. The settings on record: pH 7.4, fold selectivity for VMAT2 vs hERG, relative to inhibition of VMAT2 function.

The structures appear in SMILES notation. Structures can show the parent of a compound that is named as a salt.

Consider `FCCOc1ccccc1CCN1CCN(CCc2ccccc2Cl)CC1` [Compound 15d, 1-(2-chlorophenethyl)-4-(2-(2-fluoroethoxy)phenethyl)piperazine dihydrochloride], for which the selectivity ratio worked out at 60.
